Laboratory results: BindingDB's records for doi:10.1073/pnas.0606956103 (Targegen, 2006)

Protein sequences, listed by entry. Tags and fused reporters are not part of them. Lines headed by an entry give the natural chain unless they say otherwise; changes in a name come on top.
UniProt P42338: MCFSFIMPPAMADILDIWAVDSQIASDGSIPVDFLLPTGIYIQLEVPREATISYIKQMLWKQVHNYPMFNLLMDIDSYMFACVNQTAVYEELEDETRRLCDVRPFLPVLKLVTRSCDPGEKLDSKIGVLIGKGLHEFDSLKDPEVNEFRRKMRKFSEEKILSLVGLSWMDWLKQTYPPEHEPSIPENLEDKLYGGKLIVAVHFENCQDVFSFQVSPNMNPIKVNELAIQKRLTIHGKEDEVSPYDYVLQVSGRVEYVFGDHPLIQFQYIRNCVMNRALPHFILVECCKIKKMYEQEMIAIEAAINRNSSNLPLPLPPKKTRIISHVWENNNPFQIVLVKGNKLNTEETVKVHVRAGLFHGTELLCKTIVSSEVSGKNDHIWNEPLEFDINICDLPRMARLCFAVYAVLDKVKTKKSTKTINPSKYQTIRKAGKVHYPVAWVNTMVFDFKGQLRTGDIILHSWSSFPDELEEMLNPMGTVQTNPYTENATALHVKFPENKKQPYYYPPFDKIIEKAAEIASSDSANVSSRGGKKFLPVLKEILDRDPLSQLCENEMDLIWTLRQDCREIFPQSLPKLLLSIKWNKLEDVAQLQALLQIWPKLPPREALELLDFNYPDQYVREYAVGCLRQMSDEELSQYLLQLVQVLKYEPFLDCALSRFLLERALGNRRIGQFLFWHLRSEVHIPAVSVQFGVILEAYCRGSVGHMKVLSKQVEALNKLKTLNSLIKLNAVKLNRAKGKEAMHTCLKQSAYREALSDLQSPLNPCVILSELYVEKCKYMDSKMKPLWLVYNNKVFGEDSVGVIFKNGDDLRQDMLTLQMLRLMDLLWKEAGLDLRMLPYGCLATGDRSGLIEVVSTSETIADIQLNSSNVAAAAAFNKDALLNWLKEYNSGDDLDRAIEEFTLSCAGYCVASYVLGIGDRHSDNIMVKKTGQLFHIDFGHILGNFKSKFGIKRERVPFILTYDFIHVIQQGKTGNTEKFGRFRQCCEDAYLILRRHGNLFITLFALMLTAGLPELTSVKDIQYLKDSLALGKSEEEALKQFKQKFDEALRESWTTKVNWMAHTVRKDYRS

Target: Phosphatidylinositol 3-kinase regulatory subunit alpha/4,5-bisphosphate 3-kinase catalytic subunit beta isoform (Homo sapiens, UniProt P42338)
Test: Determination of PI3K Activity
Conditions: pH 7.4; 22 °C

- IC50: 858 nM
SMILES: O=c1cc(N2CCOCC2)oc2c(-c3ccccc3)cccc12
